Data published in PubChem BioAssay AID492972 (The Scripps Research Institute Molecular Screening Center, 2010).
Only a part is listed here, and it is no random draw. Active and inactive are the calls of the source.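 The calls were made as follows: active = inhibition above the screen-wide average of all tested compounds plus 3 SD (cut at about 25% in these data); inactive = the rest.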

By UniProt entry, the sequences of proteins in these tests, tags left out. Where a name states a change or a piece, a line headed by the entry shows the natural chain unless it says otherwise.
UniProt Q15102: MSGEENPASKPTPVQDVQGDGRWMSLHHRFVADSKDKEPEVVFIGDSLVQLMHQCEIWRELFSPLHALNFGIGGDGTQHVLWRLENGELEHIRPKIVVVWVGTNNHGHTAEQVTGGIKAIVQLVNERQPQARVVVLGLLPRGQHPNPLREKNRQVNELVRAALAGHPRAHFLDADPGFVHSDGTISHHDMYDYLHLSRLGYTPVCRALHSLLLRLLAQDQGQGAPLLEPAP

target: Platelet-activating factor acetylhydrolase IB subunit alpha1 (Homo sapiens) (UniProt Q15102); test: inhibition of PAF acetylhydrolase 1B subunit 3 – biochemical, fluorescence polarization, human, primary screen (AID 492972); conditions: recombinant PAFAH1B3, FP-rhodamine probe, at 3.39 µM, active compounds read high;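 also: 0% = enzyme with DMSO only and 100% = wells lacking PAFAH1B3 protein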

Structure (SMILES)	inhibition
O=P(Nc1nccs1)(c1ccccc1)c1nc2ccccc2s1 (centres undefined)	inactive: 1.64%
O=P(Nc1nccs1)(Oc1ccccc1)Oc1ccccc1	inactive: 0.85%
CCOP1(=S)c2c(C)nn(CCC#N)c2N=C(c2ccccc2F)N1C (centres undefined)	inactive: 3.26%
CS(=O)(=O)c1cc([N+](=O)[O-])c2no[n+]([O-])c2c1	inactive: 11.6%
Nc1ccccc1[As](=O)(O)c1ccccc1	inactive: 10.6%
O=C(O)COc1ccc([As](=O)(O)O)cc1[N+](=O)[O-]	inactive: 3.88%
CCOP1(=S)c2c(C)nn(CCC#N)c2N=C(c2ccc(F)cc2)N1C (centres undefined)	inactive: 0.86%
CN(C(=O)Cc1ccccc1)[C@@H]1CC[C@]2(CCCO2)C[C@H]1N1CCCC1	inactive: 2.77%
N#CCCN(C(=O)COC(=O)C(O)(c1ccccc1)c1ccccc1)c1ccc(F)cc1	inactive: 2.36%
CN(C(=O)Cc1ccc(Cl)c(Cl)c1)[C@H]1CC[C@@]2(CCCO2)C[C@@H]1N1CCCC1	inactive: 15.7%
CN(C)C(=O)c1cc([N+](=O)[O-])cc2c1-c1c(cc([N+](=O)[O-])cc1[N+](=O)[O-])C2=O	active: 56.2%
O=[N+]([O-])c1ccc2c(c1)nnn2O	inactive: 8.63%
O=C(OC1CN2CCC1CC2)c1ccc(Cl)cc1 (centres undefined)	inactive: 0.11%
CS(=O)(=O)c1ccc(Cl)c(NC(=O)COC(=O)C(O)(c2ccccc2)c2ccccc2)c1	inactive: -6.21%
COc1cc(C(=O)NCC2(N3CCOCC3)CCCCC2)cc(Cl)c1OC(C)C	inactive: -2.96%
O=[As](O)(O)c1cccnc1	inactive: -1.33%
O=[As](O)(c1cccc(O)c1)c1cccc(O)c1	inactive: 5.94%
Cc1cccc(OCC(=O)OC2CN3CCC2CC3)c1 (centres undefined)	inactive: -6.47%
Nc1cccc2c([As](=O)(O)O)cccc12	inactive: 17.3%
Cc1ccc(NCCc2c([N+](=O)[O-])cc([N+](=O)[O-])cc2[N+](=O)[O-])cc1	inactive: 23.4%
CCCOP(=S)(Nc1nc(N)cc(=O)[nH]1)OCCC	inactive: 7.97%
CCOP(=O)(Nc1cccc2ccccc12)OCC	inactive: 3.03%

Structure (SMILES)	inhibition
COc1cc(C2NCCC3(OCCO3)C2(C)C)cc(OC)c1OC (centres undefined)	inactive: 6.31%
CCOP(=O)(NC(=NC(C)c1ccccc1)NC(C)c1ccccc1)OCC (centres undefined)	inactive: 5.43%
O=P1(Nc2ccccn2)COc2ccccc2OC1	inactive: -0.16%
CCC1=CC2Cc3nc4ccc(Cl)cc4c(N)c3C(C1)C2 (centres undefined)	inactive: 4.2%
CCOP(=O)(Nc1ccc(C)cn1)OCC	inactive: 0.25%
CC(C)(C)C(=O)NC(Sc1ncccn1)C(Cl)(Cl)Cl (centres undefined)	inactive: 5.5%
Clc1n[nH]nc1-c1nn[nH][15n]1	inactive: 4.8%
COc1ccccc1CNC(=O)COC(=O)C(O)(c1ccccc1)c1ccccc1	inactive: -1.08%
CC(C)/C=N\N=C(\N)N[N+](=O)[O-]	inactive: 7.3%
CN(C(=O)Cc1ccc(Cl)c(Cl)c1)[C@@H]1CCCC[C@H]1N1CCCC1	inactive: 3.85%
CC1(CBr)Cn2c(nc3ccccc3c2=O)S1 (centres undefined)	inactive: 5.07%
CC1CCC(C(C)C)C(OP(=O)(Nc2ccccn2)c2ccccc2)C1 (centres undefined)	inactive: 1.18%
Cc1ccc(C(=O)OC2CN3CCC2CC3)cc1 (centres undefined)	inactive: 8.23%
Cc1nn(-c2ccccc2)c2c1P(=O)(N1CCOCC1)N(C)C(c1ccccc1)=N2 (centres undefined)	inactive: 10.8%
CN(C)C1(CNC(=O)c2ccc(S(C)(=O)=O)cc2)CCCCC1	inactive: 2.17%
CCCC1OP(=O)(Nc2ccccc2)OCC1CC (centres undefined)	inactive: 6.08%
O=C(/C=C/c1ccccc1)OC1CN2CCC1CC2 (centres undefined)	inactive: 2.22%
O=P1(Nc2ncccn2)COc2ccccc2OC1	inactive: 0.63%
Nc1cccc([As](=O)(O)c2ccccc2)c1	inactive: 2.81%
O=P1(Nc2ccc(Br)cn2)COc2ccccc2OC1	inactive: 3.47%
NS(=O)(=O)c1cccc(NC(=O)COC(=O)C(O)(c2ccccc2)c2ccccc2)c1	inactive: 4.44%
O=[As](O)(c1cccs1)c1cccs1	inactive: -2.48%

Structure (SMILES)	inhibition
Cc1ccc(OCC(=O)OC2CN3CCC2CC3)cc1 (centres undefined)	inactive: 4.02%
CCOC(=O)Nc1ccc([As](=O)(O)O)c(O)c1	inactive: 8.2%
CC1CCNP(=O)(N(CCCl)CCCl)O1 (centres undefined)	inactive: 3.82%
Cc1cc(SC(NC(=O)c2ccccc2)C(Cl)(Cl)Cl)nc(C(C)C)n1 (centres undefined)	inactive: -0.86%
CCCCOc1ccc(C(=O)NCC2(N3CCCCC3)CCCCC2)cc1OC	inactive: -8.88%
CCOC(=O)Nc1cccc([As](=O)(O)O)c1	inactive: -1.51%
O=P(Nc1ccccn1)(c1cccc2ccccc12)c1cccc2ccccc12	inactive: 2.59%
Cc1cc(SC(NC=O)C(Cl)(Cl)Cl)ncn1 (centres undefined)	inactive: 0.31%
O=[N+]([O-])c1ccc(Nc2ccc(Oc3ccc([N+](=O)[O-])cc3[N+](=O)[O-])cc2)c([N+](=O)[O-])c1	inactive: 5.98%
COP1(=S)c2c(C)nn(CCC#N)c2N=C(c2ccc(F)cc2)N1C (centres undefined)	inactive: -0.65%
O=C(Nc1ccncc1[N+](=O)[O-])c1ccc([N+](=O)[O-])cc1[N+](=O)[O-]	inactive: 2.04%
O=C(COc1ccccc1)OC1CN2CCC1CC2 (centres undefined)	inactive: 12.2%
O=C(OC1CN2CCC1CC2)c1cccc([N+](=O)[O-])c1 (centres undefined)	inactive: 1.59%
CCOC(=O)c1ccc(NC(=O)C(C)(CCl)SC)cc1 (centres undefined)	inactive: -0.49%
CCC(C)N(CC(C)C)C(=S)SC(NC(C)=O)C(Cl)(Cl)Cl (centres undefined)	inactive: 7.41%
Cc1c2c(nc3ccccc13)SC(C(Cl)Cl)C2 (centres undefined)	inactive: 2.68%
Cc1cc(=O)[nH]c(N[N+](=O)[O-])n1	inactive: -1.8%
O=C(OC1CN2CCC1CC2)C12CC3CC(CC(C3)C1)C2 (centres undefined)	inactive: 0.1%
O=P1(N(CCCl)CCCl)Nc2ccccc2N1	inactive: 6.18%
O=P1(N(CCCl)CCCl)OCCCN1CCCl (centres undefined)	inactive: 4.51%
